# Literature values, collected in PMC11938273 (Journal of Chemical Information and Modeling, 2025).
# Details: positive CNS status indicates BBB penetration; ground truth from published human or, if not available, murine brain biodistribution data incl. blocking studies; ref Table S1 column Radiolabeled (SI refs 1-108); cited from earlier work
row,Compound,CNS status
1,"8-Cyclopentyl-3-(3-fluoropropyl)-1-propyl-1H-purine-2,6(3H,7H)-dione",Positive
2,"(S)-5-(benzofuran-7-yl)-8-chloro-3-methyl-2,3,4,5-tetrahydro-1H-benzo[d]azepin-7-ol",Positive
3,2-(1-(6-((2-Fluoroethyl)(methyl)amino)naphthalen2-yl)ethylidene)malononitrile,Positive
4,"(E)-1,3,5-trimethyl-6-(3,4,5-trimethoxystyryl)-1,4a,5,7a-tetrahydro-2H-pyrrolo[2,3-d]pyrimidine-2,4(3H)-dione",Positive
5,"(6S,10bR)-6-(4-(methylthio)phenyl)-1,2,3,5,6,10bhexahydropyrrolo[2,1-a]isoquinoline",Positive
6,8-Azabicyclo[3.2.1]octane-2-carboxylic acid,Positive
7,(E)-3-((6-methylpyridin-2-yl)ethynyl)cyclohex-3- enone O-methyl oxime,Positive
8,"(4R,4aR,10bR)-9-hydroxy-4-propyl-3,4,4a,5,6,10b-hexahydro2H-naphtho[1,2-b] [1, 4]oxazin-4-ium",Positive
9,"2,3-Dimethoxyphenyl)(1-(4-fluorophenethyl) piperidin-4-yl)methanol",Positive
10,"(5S)-5-(1-Benzofuran-7-yl)-8-chloro-2,3,4,5-tetrahydro-1H-3-benzazepin-7-ol",Positive
11,N-(2-fluoroethyl)-2-(2-nitro-1H-imidazol-1-yl)acetamide,Positive
12,"(S)-8-Chloro-3-methyl-5-phenyl-2,3,4,5-tetrahydro1H-benzo[d]azepin-7-ol",Positive
13,"(1R,2S,3S,5S)-2-fluoroethyl 8-((E)-3-iodoallyl)-3-(4-iodophenyl)- 8-azabicyclo[3.2.1]octane-2-carboxylate",Positive
14,"(3α,4α,5α,8α,9β,11α,13α,14β,16β,17Z)- 16-Acetoxy-3,11-dihydroxy-4,8,14- trimethyl-18-norcholesta-17,24-dien- 21-oic acid",Negative
15,3-Fluoro-5-(pyridin-2-ylethynyl)benzonitrile,Positive
16,"(1-methylpiperidin-4-yl)methyl 8-amino-7-chloro-2,3-dihydrobenzo[b][1,4]dioxine-5-carboxylate",Positive
17,"(1RS,2RS,4SR,5SR,7SR,9R)-9-butyl-7-(((SR)-3-hydroxy-2-phenylpropanoyl)oxy)-9-methyl-3-oxa-9-azatricyclo[3.3.1.02,4]nonan-9-ium",Negative
18,CO[C@]12CC[C@@]3(C[C@@H]1C(C)(C)O)[C@H]1Cc4ccc(O)c5c4[C@@]3(CCN1CC1CC1)[C@H]2O5,Positive
19,2-Ethoxy-4-[2-({(1S)-3-methyl-1-[2- (1-piperidinyl)phenyl]butyl}amino)- 2-oxoethyl]benzoic acid,Negative
20,4-Fluoro-N-(2-(4-(2-methoxyphenyl)piperazin-1-yl)ethyl)- N-(pyridin-2-yl)benzamide,Positive
21,"(S)-5-Bromo-N-((1-ethylpyrrolidin-2-yl)methyl)-2,3- dimethoxybenzamide",Positive
22,1-(1-(4-(4-Fluorophenyl)-4-oxobutyl)piperidin-4-yl)-3-methyl1H-benzo[d]imidazol-2(3H)-one,Positive
23,"(6S,10bR)-6-(4-((fluoromethyl)thio)phenyl)-1,2,3,5,6,10bhexahydropyrrolo[2,1-a]isoquinoline",Positive
24,"8-(3-fluoropropyl)-3-(4-iodophenyl)-, methyl ester, (1R,2S,3S,5S)-",Positive
25,(2-{4-[(4-Chlorophenyl)(phenyl)methyl]-1-piperazinyl}ethoxy)acetic acid,Negative
26,"3-(2-Fluoroethyl)-8-(4-(4-fluorophenyl)-4-oxobutyl)-1-phenyl1,3,8-triazaspiro[4.5]decan-4-one",Positive
